In patent US11633400B2:

Key:
[1] = Experimental: The mixture was vigorously agitated at room temperature for one minute. […] The suspension was filtered by centrifugal filtration and 1.50 mL of the aqueous solution was transferred into a tared glass vial (about 10 mL volume). […] The solubility was determined by gravimetric evaluation of the solid residue.
[2] = Hygroscopicity by dynamic water vapor sorption analysis (DVS); details: for additional water absorbed when relative humidity is increased from 50% to 95%: 50% to 95% relative humidity

Compound: CN1c2c(nc(N)[nH]c2=O)NC[C@@H]1CNc1ccc(C(=O)N[C@@H](CCC(=O)O)C(=O)O)cc1.OCCN1CCOCC1
- kinetic solubility, amount of salt readily dissolved ([1]; room temperature, clear solution after a few seconds, expressed as salt): more than 54 mg per mL water
- kinetic solubility improved by a factor versus the known (metastable Form I) calcium salt ([1]; versus metastable Form I of the calcium salt): about three
- water content at 50% relative humidity ([2]; 50% relative humidity): about 10%
- additional water absorbed when relative humidity is increased from 50% to 95% [2]: about 2%

Compound: CN1c2c([nH]c(N)nc2=O)NC[C@@H]1CNc1ccc(C(=O)N[C@@H](CCC(=O)[O-])C(=O)[O-])cc1.[Ca+2] [reference compound]
- additional water absorbed when relative humidity is increased from 50% to 95% [2]: more than 10%
